Test results from ChEMBL document CHEMBL1250436, “Evaluation of N-substitution in 6,7-benzomorphan compounds” (Bioorg Med Chem, 2010).

By UniProt entry, the sequences of proteins in these tests, tags left out.
UniProt P33535, whole entry: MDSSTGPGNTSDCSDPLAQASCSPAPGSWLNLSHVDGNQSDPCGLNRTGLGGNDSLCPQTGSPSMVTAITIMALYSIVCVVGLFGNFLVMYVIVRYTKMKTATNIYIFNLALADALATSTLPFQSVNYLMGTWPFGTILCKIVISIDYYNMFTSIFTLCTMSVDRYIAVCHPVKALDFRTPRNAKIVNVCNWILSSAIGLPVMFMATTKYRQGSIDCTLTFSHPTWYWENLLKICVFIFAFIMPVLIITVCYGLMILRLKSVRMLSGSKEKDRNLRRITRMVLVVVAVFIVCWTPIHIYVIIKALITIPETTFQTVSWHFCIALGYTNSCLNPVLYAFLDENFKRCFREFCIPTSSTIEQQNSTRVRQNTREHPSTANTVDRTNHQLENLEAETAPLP

Molecular target: Mu-type opioid receptor (Rattus norvegicus, UniProt P33535)
Experiment: Displacement of [3H]DAMGO from Sprague-Dawley rat mu opioid receptor by liquid scintillation counting

C[C@@H](NC(=O)[C@@H](N)Cc1ccc(O)cc1)C(=O)NCC(=O)N(C)[C@@H](Cc1ccccc1)C(=O)NCCO [DAMGO]
Ki: 0.87 nM
